Legend:
[1] = biological target: hα2A receptor (Homo sapiens, UniProt P08913); experiment: Radioligand binding experiment for α2A-adrenergic receptor ([3H]-raulwolscine); conditions: CHO cell membranes with human α2A receptor, [3H]raulwolscine 1 nM
Protocol: (§1) The interaction of the compounds of Formula (I) with hα2-receptors and h5-HT-transporters was assessed in in vitro radioligand binding experiments. In general, a low concentration of a radioligand with a high binding affinity for a particular receptor or transporter is incubated with a sample of a tissue preparation enriched in a particular receptor or transporter or with a preparation of cells expressing cloned human receptors in a buffered medium. During the incubation, the radioligand binds to the receptor or transporter. When equilibrium of binding is reached, the receptor bound radioactivity is separated from the non-bound radioactivity, and the receptor- or transporter-bound activity is counted. The interaction of the test compounds with the receptor is assessed in competition binding experiments. […]
(§2) Membranes were thawed and re-homogenized in incubation buffer (glycylglycine 25 mM, pH 8.0). […] Filter-bound radioactivity was determined by scintillation counting in a Topcount (Packard, Meriden, Conn.) and results were expressed as counts per minute (cpm). Non-specific binding was determined in the presence of 1 μM oxymetazoline for hα2A- and hα2B receptors and 1 μM spiroxatrine for hα2C receptors.
(§3) Data from assays in the presence of compound were calculated as a percentage of total binding measured in the absence of test compound. […]

By UniProt entry, the sequences of proteins in these tests, tags left out.
UniProt P08913, whole entry: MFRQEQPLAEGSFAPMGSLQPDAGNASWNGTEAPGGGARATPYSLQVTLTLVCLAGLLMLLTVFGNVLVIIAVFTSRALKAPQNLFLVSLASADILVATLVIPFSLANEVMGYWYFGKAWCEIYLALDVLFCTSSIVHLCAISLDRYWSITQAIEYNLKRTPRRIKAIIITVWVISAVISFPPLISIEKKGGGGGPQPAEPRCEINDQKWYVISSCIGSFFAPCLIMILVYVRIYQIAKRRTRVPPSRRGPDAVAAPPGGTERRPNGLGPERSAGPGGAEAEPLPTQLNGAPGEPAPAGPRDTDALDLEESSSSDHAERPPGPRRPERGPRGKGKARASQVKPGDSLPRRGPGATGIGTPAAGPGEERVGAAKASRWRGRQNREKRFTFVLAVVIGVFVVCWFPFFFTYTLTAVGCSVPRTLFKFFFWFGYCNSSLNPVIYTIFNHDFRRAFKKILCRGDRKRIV
UniProt P18825, whole entry: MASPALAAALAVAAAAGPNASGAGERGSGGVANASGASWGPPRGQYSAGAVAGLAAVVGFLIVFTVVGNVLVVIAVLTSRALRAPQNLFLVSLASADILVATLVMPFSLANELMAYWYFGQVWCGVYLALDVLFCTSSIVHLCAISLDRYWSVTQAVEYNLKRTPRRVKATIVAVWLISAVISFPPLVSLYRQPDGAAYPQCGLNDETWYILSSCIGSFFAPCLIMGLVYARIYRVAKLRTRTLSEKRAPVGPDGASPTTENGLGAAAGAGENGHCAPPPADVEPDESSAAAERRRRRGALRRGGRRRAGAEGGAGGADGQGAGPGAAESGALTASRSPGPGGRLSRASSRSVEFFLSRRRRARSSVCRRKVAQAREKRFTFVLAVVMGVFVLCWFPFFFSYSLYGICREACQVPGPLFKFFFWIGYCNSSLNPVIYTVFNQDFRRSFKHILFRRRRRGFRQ
UniProt P31645, whole entry: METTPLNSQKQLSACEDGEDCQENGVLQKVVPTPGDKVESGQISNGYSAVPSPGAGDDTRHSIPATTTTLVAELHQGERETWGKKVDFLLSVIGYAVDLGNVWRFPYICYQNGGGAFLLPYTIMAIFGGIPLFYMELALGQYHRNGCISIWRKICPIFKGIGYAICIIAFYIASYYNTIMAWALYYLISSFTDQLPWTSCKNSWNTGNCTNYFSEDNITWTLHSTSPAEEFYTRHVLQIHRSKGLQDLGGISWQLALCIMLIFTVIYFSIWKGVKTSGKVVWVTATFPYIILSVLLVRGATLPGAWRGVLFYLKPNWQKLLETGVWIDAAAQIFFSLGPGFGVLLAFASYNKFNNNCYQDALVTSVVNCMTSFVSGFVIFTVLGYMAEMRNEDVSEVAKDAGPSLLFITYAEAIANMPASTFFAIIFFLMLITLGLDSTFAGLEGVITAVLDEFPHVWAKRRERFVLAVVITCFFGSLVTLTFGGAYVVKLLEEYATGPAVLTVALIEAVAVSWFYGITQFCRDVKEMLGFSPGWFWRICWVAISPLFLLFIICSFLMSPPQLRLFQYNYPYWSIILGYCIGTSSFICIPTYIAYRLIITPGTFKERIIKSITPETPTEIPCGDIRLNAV

[2] = biological target: hα2C receptor (Homo sapiens, UniProt P18825); experiment: Radioligand binding experiment for α2C-adrenergic receptor ([3H]-raulwolscine); conditions: CHO cell membranes with human α2C receptor, [3H]raulwolscine 1 nM
Protocol: as §1, §2, §3

[3] = biological target: h5-HT transporter (Homo sapiens, UniProt P31645); experiment: Radioligand binding experiment for 5-HT transporter ([3H]paroxetine); conditions: human platelet membranes, [3H]paroxetine 0.5 nM
Protocol: as §1
Human platelet membranes (Oceanix Biosciences Corporation, Hanover, Md., USA) were thawed, diluted in buffer (Tris-HCl 50 mM, 120 mM NaCl and 5 mM KCl) and quickly (max 3 s) homogenised with an Ultraturrax homogenizer. […] Filters were rinsed extensively with ice-cold buffer and radioactivity on the filters was counted in a Topcount liquid scintillation counter (Packard, Meriden, Conn.). Data were expressed as cpm. […]
as §3

| Structure (SMILES) | pIC50 α2A [1] | pIC50 α2C [2] | pIC50 HTT [3] |
| --- | --- | --- | --- |
| COc1ccc(Nc2ccc3c(c2)C2=NOC(CN4CCN(CC=Cc5ccccc5)CC4)C2CO3)cc1 (stereo not drawn) | 7.7 | 7.2 | 6.4 |
| CC(=Cc1ccccc1)CN1CCN(CC2ON=C3c4cc5c(cc4OCC32)NCCO5)CC1 (stereo not drawn) | 8.4 | 9.2 | 7.9 |

Source: US7265103B2, “Substituted amino isoxazoline derivatives and their use as anti-depressants” (Janssen Pharmaceutica NV., priority 2002, dated 2007)
